This is an account of results in PubChem BioAssay AID2629 (Broad Institute, 2010).

Sequences of proteins named here, by UniProt entry; tags and fusion partners are left off.
UniProt Q9QR71, whole entry: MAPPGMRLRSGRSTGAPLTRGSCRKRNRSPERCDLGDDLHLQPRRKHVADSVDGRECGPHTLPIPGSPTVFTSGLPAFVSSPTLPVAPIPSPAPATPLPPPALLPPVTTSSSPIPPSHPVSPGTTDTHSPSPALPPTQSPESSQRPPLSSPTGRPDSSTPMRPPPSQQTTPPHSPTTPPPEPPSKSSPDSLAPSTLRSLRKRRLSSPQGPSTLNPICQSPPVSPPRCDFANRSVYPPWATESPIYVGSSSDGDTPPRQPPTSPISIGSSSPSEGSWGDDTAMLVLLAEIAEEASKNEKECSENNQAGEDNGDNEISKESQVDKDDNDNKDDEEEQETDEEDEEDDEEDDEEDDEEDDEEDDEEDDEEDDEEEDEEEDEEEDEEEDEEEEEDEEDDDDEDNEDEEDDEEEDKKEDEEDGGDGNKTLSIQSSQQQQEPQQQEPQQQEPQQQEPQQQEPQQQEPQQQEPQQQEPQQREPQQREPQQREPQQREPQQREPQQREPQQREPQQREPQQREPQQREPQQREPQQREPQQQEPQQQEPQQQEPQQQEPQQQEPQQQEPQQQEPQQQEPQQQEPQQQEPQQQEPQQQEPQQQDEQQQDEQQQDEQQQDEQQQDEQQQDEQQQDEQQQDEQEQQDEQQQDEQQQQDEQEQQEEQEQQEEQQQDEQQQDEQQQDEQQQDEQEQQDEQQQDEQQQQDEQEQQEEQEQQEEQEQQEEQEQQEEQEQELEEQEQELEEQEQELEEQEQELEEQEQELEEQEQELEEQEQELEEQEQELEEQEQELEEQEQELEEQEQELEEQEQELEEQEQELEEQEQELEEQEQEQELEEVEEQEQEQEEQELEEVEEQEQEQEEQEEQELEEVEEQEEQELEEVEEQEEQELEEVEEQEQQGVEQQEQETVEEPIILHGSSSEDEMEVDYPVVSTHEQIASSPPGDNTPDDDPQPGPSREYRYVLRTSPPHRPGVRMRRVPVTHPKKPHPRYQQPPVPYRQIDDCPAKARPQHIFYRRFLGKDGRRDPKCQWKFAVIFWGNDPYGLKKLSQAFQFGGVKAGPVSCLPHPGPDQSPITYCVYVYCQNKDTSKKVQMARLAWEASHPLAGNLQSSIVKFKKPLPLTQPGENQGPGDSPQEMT

The list shows a part of the results, in another mix than the full data. Some results for these compounds are left out of this collection, so the calls shown say nothing about other tests. Active and inactive are the calls of the source. Cut-off read from the data, not from the text of the source: active = inhibition mostly above about 10% (no sharp cut-off); inactive = mostly below about 6.7%.

This test concerns the target Protein LANA1 (Human herpesvirus 8 type P (isolate GK18)) (UniProt Q9QR71). Kind of test: blockers of LANA interaction with H2A/H2B – biochemical, FP readout, HTS, primary screen (AID 2629). As to conditions: cell-free LANA-H2A/H2B peptide, fluorescence polarization; hits give high values; concentration not given here. Background: In fluorescence polarisation assays a small probe gives low polarisation when free and higher when bound to something large.
Consider `CN1[C@@H]2CC[C@H]1CC(OC(=O)C(O)(c1ccccc1)c1ccccc1)C2` (some centres undefined), for which the inhibition was inactive: 2.1%.
As for `O=C(NCC1(N2CCCCC2)CCCCC1)c1cc([N+](=O)[O-])ccc1Cl`, the inhibition was inactive: 6.45%.
Turning to `Cc1ccc(C(=O)NCC2(N3CCCCC3)CCCCC2)cc1`, the inhibition was inactive: -4.83%.
Regarding `CC(C)N1C(=O)CC2(CCN(CCOC(=O)C(O)(c3ccccc3)c3ccccc3)CC2)C1=O`, the inhibition is inactive: -4.82%.
Next, `COc1cc(SC)ccc1C(=O)NCC1(N(C)C)CCCCC1`: inactive: -0.889%; `CCN(CC)CC(C)C(C)OC(=O)C(O)(c1ccccc1)c1ccccc1` (centres undefined): inactive: 4.04%; `CN(C)C1CCCC1OC(=O)C(O)(c1ccccc1)c1ccccc1` (centres undefined): inactive: -7.65%.
The result for `CN(C)c1ccc(C(=O)NCC2(N(C)C)CCCCC2)cc1` reads inactive: 1.39%; that for `Cc1ccccc1C(=O)NCC1(N2CCCCC2)CCCCC1`, inactive: -1.03%; that for `O=C(NCC1(N2CCCCC2)CCCCC1)c1cccc(Br)c1`, inactive: 3.02%.
Next, `Cc1cc(C(=O)NCC2(N3CCCCC3)CCCCC2)ccc1[N+](=O)[O-]`: inactive: -7.9%; `CCN1CCCC(OC(=O)C2(O)c3ccccc3C=Cc3ccccc32)C1` (centres undefined): inactive: -7%.
On to `COc1ccc(C(=O)NCC2(N(C)C)CCCCC2)cc1`, for which the inhibition was inactive: 2.03%.
As to `O=C(NCC1(N2CCCCC2)CCCCC1)c1cc(F)c(F)cc1Cl`, the inhibition was inactive: 3.23%.
The result for `C=CCN1CCN(CCOC(=O)C(O)(c2ccccc2)c2ccccc2)CC1` reads inactive: -1.31%; that for `COc1cc(C(=O)NCC2(N(C)C)CCCCC2)c([N+](=O)[O-])cc1OC`, inactive: 2.04%; that for `CN(C)C1(CNC(=O)c2ccc(Br)cc2)CCCCC1`, inactive: 1.17%.
The result for `O=C(NCC1(N2CCCCC2)CCCCC1)c1cccc(Cl)c1` reads inactive: 6.35%; that for `COc1ccc(Cl)cc1C(=O)NCC1(N(C)C)CCCCC1`, inactive: 8.21%.
On to `COc1cccc(C(=O)NCC2(N3CCCCC3)CCCCC2)c1`, for which the inhibition is inactive: 3.7%.
Next, `O=C(OC1CN2CCC1CC2)C(CO)(c1ccccc1)c1ccccc1` (centres undefined): inactive: -5.73%; `CN(C)c1cccc(C(=O)NCC2(N(C)C)CCCCC2)c1`: inactive: 0.302%; `CC(C)Oc1ccc(C(=O)NCC2(N(C)C)CCCCC2)cc1`: inactive: 4.41%.
The result for `COc1ccc(Br)c(C(=O)NCC2(N3CCCCC3)CCCCC2)c1` reads inactive: 2.23%.

What is called inhibition is the relative decrease from the control value, in per cent.
